Assay results as given in patent US20250275978A1 (Cardiff Oncology, Inc., priority 2024, published 2025).

Legend:
[1] = test system: RAS^WT CRC patient-derived xenograft (PDX) models; experiment: Example 1: antitumor activity in RAS^WT CRC PDX models, 18 days; assay type: in vivo, nude mice
Method: Twenty RAS^WT CRC PDXs were selected and engrafted in nude mice. […] PDX models were chosen based on their sensitivity to cetuximab, resulting in a selection of 7 cetuximab-sensitive (CetuxS) and 13 cetuximab-resistant (CetuxR) PDXs, including 7 with intrinsic resistance and 6 with acquired-resistance. Tumor volume change from baseline (TVC) was calculated as 100%×(Vt−Vo)/Vo and tumor growth inhibition (TGI) as 100%×(TVCcontrol−TVCtreated)/TVCcontrol. Tumor regression was defined as TVCD18<0 and tumor stasis […].

[2] = test system: RAS^WT colorectal cancer patient derived xenograft (PDX) models; experiment: Example 2: antitumor activity in RAS^WT CRC PDX models, 18-19 days; assay type: in vivo, mice
Method: Tumor volumes (TV) were measured twice a week, and % tumor volume change (TVC) from baseline was calculated as follows: (TVi/TV0−1)×100. Tumor stasis defined as TVC between 0 and 20%, and tumor regression as TVC less than 0% at last measurement. Results are presented as mean±SEM.
Provided in this example are methods for use of PLK1 inhibitor as monotherapy or combination with EGFR inhibitor for treatment of cancer.

[3] = 6 PDXs with acquired resistance to cetuximab

cetuximab: monoclonal antibody targeting the epidermal growth factor receptor (EGFR) [reference compound]
effect in cetuximab-sensitive (CetuxS) PDXs ([1]; 7 CetuxS PDXs, 20 mg/kg BIW, 18 days): tumor regression in all the CetuxS PDXs | median TGI (tumor growth inhibition) ([1]; cetuximab-resistant models (13), IQR 16-61): 29% | models resistant to cetuximab [2, 3]: Four | models showing partial response [2, 3]: two | response of models ([2]; 7 PDXs sensitive to cetuximab): all models responded | models in which cetuximab resistance was confirmed ([2]; 7 PDXs with intrinsic resistance to cetuximab): six of the seven
